An excerpt weighted towards active compounds, which were near 1.6% of everything screened.
Vif inh: HIV Vif self-association inhibitors, primary screen, imaging, HEK293T, single point; AID 602346, 2012; inhibition, % at 7.49 µM; 340,000 tested, 0.35% active; HEK293T cells, Vif self-association by quenched fluorescence, 24 h; in the data active = inhibition above about 50%, passing the limit was not always enough
CAL PDZ FP-1: CAL PDZ peptide-binding inhibitors, primary screen, biochemical, fluorescence polarization, Cer-tagged CAL PDZ, HTS; Golgi-associated PDZ and coiled-coil motif-containing protein (Homo sapiens), Q9HD26; purified CAL PDZ, TMR-peptide fluorescence polarization, 1 h; inhibition, % at 20 µM; 330,000 tested, 0.02% active; AID 504414, 2011;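 active = highest replicate inhibition of at least 40%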;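 also: plate controls were DMSO neutral control wells for no effect and unlabeled competitor peptide control wells for full effect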
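Read-out basis: mP drop reported as inhibition | Assay system: Tagged CAL PDZ protein CerCALP, purified | Benchmarks: Unlabelled peptide for full inhibition, DMSO wells as neutral | Schedule: 1 h incubation at room temperature before polarization reading | Buffer or medium: Sodium phosphate/NaCl buffer pH 7.4 with TCEP, IgG, Thesit | Doses: Single point, 20 µM | Measured by: Fluorescence polarization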
PglD DTNB: C. jejuni PglD acetyltransferase inhibitors, primary screen, biochemical, DTNB colorimetric, single point | purified PglD enzyme, DTNB colorimetric CoA detection | inhibition, % at 12.5 µM | UDP-N-acetylbacillosamine N-acetyltransferase PglD (Campylobacter jejuni) | 360,000 tested, 0.098% active; in the data active = inhibition above about 16%, passing the limit was not always enough
Yeast UUG start: alters start codon recognition fidelity in yeast. S. cerevisiae UUG-firefly luciferase reporter, luminescence/redox ratio. 350,000 tested, 0.13% active. activity score, % at 18.7 µM. AID 602363;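 active means replicate mean at a twofold rise or more, about +100% in these data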;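 further: firefly luciferase made from a UUG start codon reports start codon fidelity; reporter light over untreated wells divided by growth signal over untreated wells; some hits fall short of that in this replicate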
ARNT-TACC3 inh: disruptors of ARNT/TACC3 protein interaction, primary screen, biochemical, AlphaScreen, single concentration; AlphaScreen His-ARNT PAS-B/GST-TACC3 binding, luminescence; TACC3 fragment carries E629A point mutation; inhibition, % at 9.99 µM; 390,000 tested, 0.66% active;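 active = mean inhibition of replicates at least 50% and at least half of replicates each reaching 50%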;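 also: 0% = complete ARNT plus TACC3 wells and 100% = ARNT alone without TACC3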
CAL PDZ FP-2: untagged CAL PDZ binding inhibitors, primary screen, biochemical, fluorescence polarization, HTS | purified CAL PDZ, TMR-peptide fluorescence polarization, 1 h | inhibition, % at 24.9 µM | 300,000 tested, 0.92% active | AID 602252, 2012;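 active = mean inhibition of at least 30% with at least half of replicates also reaching 30%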;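 also: 0% = DMSO neutral control and 100% = excess unlabeled competitor peptide PRC23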
Starred values were filed as active, the others as inactive; . = not tested or not shown.

Letter code – A = Vif inh; B = CAL PDZ FP-1; C = PglD DTNB; D = Yeast UUG start; E = ARNT-TACC3 inh; F = CAL PDZ FP-2
C[C@H](CO)N1C[C@H](C)[C@@H](CN(C)CC2CCCCC2)Oc2ccc(NS(=O)(=O)c3cn(C)cn3)cc2C1=O
  A = .; B = .; C = 9.7; D = -3.5; E = -5.8; F = .

Cc1noc(C)c1NC(=O)N(C)C[C@@H]1Oc2ccc(NC(=O)Cn3cnnn3)cc2CC(=O)N([C@H](C)CO)C[C@H]1C
  A = .; B = .; C = 1.1; D = -7.7; E = 1.2; F = .

CCC(=O)n1nc(-c2ccc(Cl)cc2)nc1SC
  A = 53.0*; B = -2.3; C = -3.7; D = -6.9; E = -9.4; F = 2.9

COc1ccc(C2=CC(=O)C[C@H](c3ccc(OC)cc3)C2)cc1
  A = 17.4; B = -2.1; C = 3.3; D = -10.8; E = 1.7; F = -4.6

COc1ccc([C@H]2CC(=O)C=C(c3ccc(OC)cc3OC)C2)cc1
  A = 55.4*; B = -2.2; C = 1.8; D = -15.0; E = 1.5; F = -4.9

C=CCOc1ccccc1C(=O)/C=C1/C(=O)Nc2ccccc21
  A = -2.5; B = .; C = -4.5; D = 0.3; E = 11.8; F = 70.3*

COc1ccc(-c2csc(=Nc3ccccc3)n2CCO)cc1
  A = 7.1; B = -0.3; C = -2.6; D = 0.6; E = 26.6; F = .

COc1ccc(-c2csc(=NCCO)n2-c2ccccc2)cc1
  A = -2.6; B = -0.5; C = 9.6; D = -10.7; E = 23.7; F = 62.2*

CCOC(=O)c1cc(-c2ccc(/C=N\n3cnnc3)o2)ccc1Cl
  A = -2.9; B = -1.2; C = 25.2*; D = -28.2; E = -0.4; F = -0.6

CC(C)N=c1scc(-c2cccs2)n1/N=C/c1ccc(O)c(O)c1O
  A = 17.4; B = -0.4; C = .; D = .; E = 58.7*; F = -3.9

Ordered by the number under CAL PDZ FP-2 (ascending): 3 from the list above
Letter code – A = Vif inh; B = CAL PDZ FP-1; C = PglD DTNB; D = Yeast UUG start; E = ARNT-TACC3 inh; F = CAL PDZ FP-2
CC(C)N=c1scc(-c2cccs2)n1/N=C/c1ccc(O)c(O)c1O
  A = 17.4; B = -0.4; C = .; D = .; E = 58.7*; F = -3.9

CCC(=O)n1nc(-c2ccc(Cl)cc2)nc1SC
  A = 53.0*; B = -2.3; C = -3.7; D = -6.9; E = -9.4; F = 2.9

COc1ccc(-c2csc(=NCCO)n2-c2ccccc2)cc1
  A = -2.6; B = -0.5; C = 9.6; D = -10.7; E = 23.7; F = 62.2*

The listing continues.
Letter code – A = Vif inh; B = CAL PDZ FP-1; C = PglD DTNB; D = Yeast UUG start; E = ARNT-TACC3 inh; F = CAL PDZ FP-2
CN=c1scc(-c2ccccc2F)n1/N=C/c1ccc(O)c(O)c1O
  A = 13.6; B = 10.7; C = 1.0; D = -91.7; E = 52.8*; F = -2.0

CN=c1scc(-c2ccccc2F)n1/N=C/c1ccc[nH]1
  A = -9.3; B = 0.3; C = .; D = .; E = 14.1; F = 3.8

CO[C@H]1CN(C)C(=O)c2cc(NC(=O)c3ccccc3)ccc2OC[C@H](C)N(C)C[C@@H]1C
  A = .; B = .; C = 0.1; D = 2.7; E = 0.7; F = .

C/C=C/C(=O)OCC(=O)Nc1ccccc1Br
  A = 6.9; B = 0.7; C = .; D = .; E = 6.9; F = -3.8

O=C(COC(=O)/C=C/C(=O)OCC(=O)Nc1ccccc1F)Nc1ccccc1F
  A = 79.4*; B = -2.2; C = .; D = .; E = 0.2; F = -0.5

CCCCC(=O)NC(=S)NNC(=O)c1ccc(OC)cc1
  A = 4.8; B = 0.8; C = .; D = .; E = 53.9*; F = 2.9

CCCCC(=O)NC(=S)NNC(=O)CCc1ccccc1
  A = 0.2; B = -1.9; C = 0.5; D = -58.2; E = 29.2*; F = -3.2

CC(=O)NC(=S)NNC(=O)CCc1ccccc1
  A = 5.1; B = -2.0; C = .; D = .; E = 33.7; F = -0.8

CC(COc1ccccc1)OC(=O)Nc1ccccc1 (stereo not drawn)
  A = 15.5; B = 31.3; C = -0.6; D = -1.8; E = -11.3; F = 60.9*

C[C@H]1CN([C@@H](C)CO)C(=O)c2cc(C#CCN(C)C)cnc2O[C@H]1CN(C)C
  A = .; B = .; C = 2.5; D = 7.3; E = -0.7; F = .

COCCOC(=O)N1C(=O)[C@@]2(c3cc(C#CC4=CCCCC4)ccc31)[C@H](C(=O)NC[C@H](O)c1ccccc1)[C@H]1C(=O)O[C@H](c3ccccc3)[C@H](c3ccccc3)N1[C@@H]2c1ccc(O)cc1
  A = .; B = .; C = -8.7; D = -5.6; E = -2.6; F = .

CC1=NN(c2ccc(S(=O)(=O)O)cc2Cl)C(=O)C1
  A = 2.2; B = -3.4; C = .; D = .; E = 34.3; F = 1.0

CC1=NN(c2cc(Cl)c(S(=O)(=O)O)cc2Cl)C(=O)C1
  A = 10.4; B = -0.4; C = -1.9; D = -12.2; E = 30.0*; F = 1.0

Cc1cc(Cl)ccc1N(CC(=O)NCCSCc1ccco1)S(C)(=O)=O
  A = -5.3; B = 1.8; C = 2.1; D = -9.6; E = -0.8; F = 99.3*

Cc1ccc(N(CC(=O)NCCSCc2ccco2)S(C)(=O)=O)cc1
  A = -2.8; B = -2.4; C = 2.4; D = -9.8; E = -18.8; F = -4.6

O=C(c1ccc2c(c1)OCO2)N(CC1CCCO1)C1(C(=O)NC2CCCC2)CCCCC1 (stereo not drawn)
  A = 69.5*; B = -1.6; C = 2.9; D = -4.4; E = 1.7; F = 3.3

C[C@H]1CCCCO[C@@H](CN(C)C(=O)Nc2ccccc2)[C@@H](C)CN([C@@H](C)CO)C(=O)c2cc(NC(=O)NC3CCCCC3)ccc2O1
  A = .; B = .; C = 7.9; D = -17.5; E = -0.2; F = .

C[C@@H]1CCCCO[C@@H](CN(C)C(=O)Nc2cccc3ccccc23)[C@H](C)CN([C@H](C)CO)C(=O)c2cc(NC(=O)C3CCCCC3)ccc2O1
  A = .; B = .; C = 0.4; D = -5.1; E = -3.1; F = .

CC12CCC(C(=O)NCCc3ccccc3)(OC1=O)C2(C)C (stereo not drawn)
  A = 51.9*; B = -1.4; C = .; D = .; E = -6.5; F = -0.2

CCCNC(=O)C12CCC(C)(C(=O)O1)C2(C)C (stereo not drawn)
  A = 0.4; B = .; C = -2.1; D = -5.9; E = .; F = .

COc1ccc(/C(C)=N/NC(=O)c2cc(-c3cccnc3)nc3ccccc23)cc1
  A = 3.5; B = -3.0; C = 3.5; D = -3.2; E = .; F = -0.7

C/C(=N\NC(=O)c1cc(-c2ccncc2)nc2ccccc12)c1ccc(OC(F)F)cc1
  A = -5.0; B = 0.0; C = .; D = .; E = -1.7; F = 69.6*

CCNc1nc(NCC)nc(C(=O)OCCO)n1
  A = 1.1; B = -1.3; C = -2.9; D = -15.9; E = 49.4*; F = .

O=C1CCn2c1c(O)c1ccccc1c2=O
  A = -0.4; B = -0.6; C = .; D = .; E = 51.7*; F = -6.2

O=c1c2ccccc2nc2n1CCC2
  A = 8.9; B = 22.2; C = .; D = .; E = -22.1; F = 5.2

Cc1cccc2cccnc12
  A = -3.3; B = -1.2; C = 0.4; D = -3.9; E = .; F = -5.0

c1cnc2c(c1)ccc1cccnc12
  A = -7.7; B = -1.6; C = 1.1; D = -32.5; E = 64.7*; F = -4.5

O=Cc1ccc2ccc3cccnc3c2n1
  A = -3.6; B = -0.8; C = 4.4; D = -45.6; E = 66.9*; F = 55.0*

O=c1cc[nH]c2c1ccc1cccnc12
  A = -4.4; B = -0.1; C = 7.0; D = -17.7; E = 60.7*; F = -1.8

COc1ccc(/C=N/N(C)C2=NS(=O)(=O)c3ccccc32)cc1
  A = 5.7; B = -0.9; C = -4.0; D = -13.6; E = -7.4; F = -1.2

CN(/N=C/c1ccc(N(C)C)cc1)C1=NS(=O)(=O)c2ccccc21
  A = 127.9*; B = -0.7; C = -1.1; D = 5.6; E = 0.5; F = 6.0

O=C(NCCN1CCOCC1)c1ccc(CS(=O)(=O)c2c(Cl)cccc2Cl)o1
  A = 2.5; B = -0.6; C = 5.3; D = 12.4; E = .; F = 32.1*

O=c1[nH]c2nc(Cl)nc(Cl)c2[nH]1
  A = 19.2; B = -0.7; C = -3.1; D = -13.8; E = -2.5; F = 81.4*

COc1ccc(CN2C(=O)c3ccccc3C2=O)cc1
  A = 62.2*; B = -1.1; C = -4.7; D = -10.9; E = -4.6; F = -4.7

C=C1CCC2C(C)(C)[C@H](O)CC[C@@]2(C)[C@@H]1COc1cc(=O)oc2ccccc12 (stereo partly drawn)
  A = 0.9; B = -1.1; C = -1.1; D = 0.9; E = -4.0; F = 0.7

C=C1CC(COc2cc(=O)oc3ccccc23)(c2ccccc2)OC1=O (stereo not drawn)
  A = 56.2*; B = -0.5; C = .; D = .; E = 5.0; F = 0.0

Bioassay records deposited in PubChem BioAssay by Broad Institute.
